Earlier results on one substance are cited in patent US20230110028A1, “OXYBATE POLYETHYLENE GLYCOL PRODRUGS” (Tris Pharma, Inc., priority 2021, published 2023).

Take Hydroxypropyl-γ-cyclodextrin: the Solubility was at least 500 mg/mL.
